Experimental findings from paper PMC6679956 (Journal of medicinal chemistry, 2019) are described below.

Sequences of proteins named here, by UniProt entry; tags and fusion partners are left off.
UniProt P06730, whole entry: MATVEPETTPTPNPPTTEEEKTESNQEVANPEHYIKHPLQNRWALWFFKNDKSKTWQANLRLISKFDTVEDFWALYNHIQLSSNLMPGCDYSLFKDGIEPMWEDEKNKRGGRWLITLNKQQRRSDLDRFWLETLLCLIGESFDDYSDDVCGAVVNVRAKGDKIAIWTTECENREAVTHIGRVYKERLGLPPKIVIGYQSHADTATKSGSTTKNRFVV

One experiment deals with m^7GDP-bound eIF4E (Homo sapiens, UniProt P06730). The experiment in a line: SPR binding kinetics of peptides to immobilized eIF4E. (In general: In SPR one partner is held on a chip, and binding of the other changes the refractive index at the surface.)
Experiment [1] concerns the target 10× His-eIF4E (human eukaryotic translation initiation factor 4E) (human, UniProt P06730 1-217). The experiment in a line: SPR.

As to `CC(=O)N[C@@H](CCCCN)C(=O)N[C@@H](CCCCN)C(=O)N[C@@H](CCCNC(=N)N)C(=O)N[C@@H](Cc1ccc(O)cc1)C(=O)N[C@@H](CO)C(=O)N[C@@H](CCCNC(=N)N)C(=O)N[C@@]1(C)CCCC=CCCC[C@@](C)(C(=O)N[C@@H](CC(C)C)C(N)=O)NC(=O)[C@H](CC(C)C)NC(=O)[C@H](CC(C)C)NC(=O)[C@H](CCC(N)=O)NC1=O` [sTIP-04, reference compound], on m^7GDP-bound eIF4E (SPR, 25 °C), the “fold enhancement in kd of stapled versus linear peptide” value is listed as above 20 fold and the “fold reduction in ka of stapled versus linear peptide” value worked out at 2.4 fold. For the same molecule, on m^7GDP-bound eIF4E (pH 7.5, read-out: association rate ka), the kon came out at 830000 ± 50000 M⁻¹ s⁻¹. Besides, the koff on m^7GDP-bound eIF4E (pH 7.5, read-out: dissociation rate kd) turned out to be 0.0052 ± 0.0001 s⁻¹.

B1: linear eIF4G peptide (KKRYDREFLLGFQF, eIF4GI) (peptide)
peptide: KKRYDREFLLGFQF
modifications: N-terminal acetyl cap; C-terminal amide
Turning to B1, in experiment [1], the dissociation constant Kd was determined as 29 ± 6 nM.

Usually Kd stands for the concentration at which binding is half-saturated. High values mean a looser complex, low ones a tighter complex.
